Source: patent US9125913B2, “Bcl-2-selective apoptosis-inducing agents for the treatment of cancer and immune diseases” (AbbVie Inc., priority 2008, dated 2015)

system: GST-Bcl-2; experiment: TR-FRET binding assay, Bcl-2; conditions: TR-FRET Ki values
Description: Tb-anti-GST antibody was purchased from Invitrogen (Catalog No. PV4216).
Representative compounds were serially diluted in dimethyl sulfoxide (DMSO) starting at 50 μM (2× starting concentration; 10% DMSO) and 10 μL were transferred into a 384-well plate.
The samples were then mixed on a shaker for 1 minute and incubated for an additional 3 hours at room temperature. For each assay, the probe/antibody and protein/probe/antibody were included on each assay plate as negative and positive controls, respectively. Fluorescence was measured on the Envision (Perkin Elmer) using a 340/35 nm excitation filter and 520/525 (F-Bak peptide) and 495/510 nm (Tb-labeled anti-Histidine antibody) emission filters.
The inhibition constant (Ki) is the dissociation constant of an enzyme-inhibitor complex or a protein/small molecule complex, wherein the small molecule is inhibiting binding of one protein to another protein or peptide. […] Inhibition constants were determined using Wang's equation (Wang Z-X., An Exact Mathematical Expression For Describing Competitive Binding Of Two Different Ligands To A Protein Molecule. FEBS Lett. 1995, 360:111-4).

SMILES	Binding selectivity ratio (Bcl-XL Ki/Bcl-2 Ki)
CC1(C)CCC(CN2CCN(c3ccc(C(=O)NS(=O)(=O)c4cnc(OCC5(F)CCOCC5)c(C#N)c4)c(Oc4cccc5[nH]ncc45)c3)CC2)=C(c2ccc(Cl)cc2)C1 [EXAMPLE 406, 4-(4-{[2-(4-chlorophenyl)-4,4-dimethylcyclohex-1-en-1-yl]methyl}piperazin-1-yl)-N-({5-cyano-6-[(4-fluorotetrahydro-2H-pyran-4-yl)methoxy]pyridin-3-yl}sulfonyl)-2-(1H-indazol-4-yloxy)benzamide]	1264
CC1(C)CCC(CN2CCN(c3ccc(C(=O)NS(=O)(=O)c4cnc(OCC5(F)CCOCC5)c(C(F)(F)F)c4)c(Oc4cccc5[nH]ncc45)c3)CC2)=C(c2ccc(Cl)cc2)C1 [EXAMPLE 410, 4-(4-{[2-(4-chlorophenyl)-4,4-dimethylcyclohex-1-en-1-yl]methyl}piperazin-1-yl)-N-{[6-[(4-fluorotetrahydro-2H-pyran-4-yl)methoxy]-5-(trifluoromethyl)pyridin-3-yl]sulfonyl}-2-(1H-indazol-4-yloxy)benzamide]	1839
CO[C@H]1CC[C@H](COc2ncc(S(=O)(=O)NC(=O)c3ccc(N4CCN(CC5=C(c6ccc(Cl)cc6)CC(C)(C)CC5)CC4)cc3Oc3cccc4[nH]ncc34)cc2Cl)CC1 [EXAMPLE 414, Trans-N-({5-chloro-6-[(4-methoxycyclohexyl)methoxy]pyridin-3-yl}sulfonyl)-4-(4-{[2-(4-chlorophenyl)-4,4-dimethylcyclohex-1-en-1-yl]methyl}piperazin-1-yl)-2-(1H-indazol-4-yloxy)benzamide]	13930.52218
CC1(C)CCC(CN2CCN(c3ccc(C(=O)NS(=O)(=O)c4cnc(OCC5(F)CCOCC5)c(F)c4)c(Oc4cccc5[nH]ncc45)c3)CC2)=C(c2ccc(Cl)cc2)C1 [EXAMPLE 416, 4-(4-{[2-(4-chlorophenyl)-4,4-dimethylcyclohex-1-en-1-yl]methyl}piperazin-1-yl)-N-({5-fluoro-6-[(4-fluorotetrahydro-2H-pyran-4-yl)methoxy]pyridin-3-yl}sulfonyl)-2-(1H-indazol-4-yloxy)benzamide]	2569
CC1(C)CCC(CN2CCN(c3ccc(C(=O)NS(=O)(=O)c4ccc(N[C@@H]5CCN(C(CF)CF)C5)c([N+](=O)[O-])c4)c(Oc4cccc5[nH]ncc45)c3)CC2)=C(c2ccc(Cl)cc2)C1 [EXAMPLE 435, 4-(4-{[2-(4-chlorophenyl)-4,4-dimethylcyclohex-1-en-1-yl]methyl}piperazin-1-yl)-N-{[4-({(3R)-1-[2-fluoro-1-(fluoromethyl)ethyl]pyrrolidin-3-yl}amino)-3-nitrophenyl]sulfonyl}-2-(1H-indazol-4-yloxy)benzamide]	1935
CC1(C)CCC(CN2CCN(c3ccc(C(=O)NS(=O)(=O)c4ccc(NC5CCN(C6CC6)CC5)c([N+](=O)[O-])c4)c(Oc4cccc5[nH]ncc45)c3)CC2)=C(c2ccc(Cl)cc2)C1 [EXAMPLE 436, 4-(4-{[2-(4-chlorophenyl)-4,4-dimethylcyclohex-1-en-1-yl]methyl}piperazin-1-yl)-N-({4-[(1-cyclopropylpiperidin-4-yl)amino]-3-nitrophenyl}sulfonyl)-2-(1H-indazol-4-yloxy)benzamide]	590.9
CC1(C)CCC(CN2CCN(c3ccc(C(=O)NS(=O)(=O)c4ccc(OCC5COCCO5)c([N+](=O)[O-])c4)c(Oc4cccc5[nH]ncc45)c3)CC2)=C(c2ccc(Cl)cc2)C1 (stereo not drawn) [EXAMPLE 447, 4-(4-{[2-(4-chlorophenyl)-4,4-dimethylcyclohex-1-en-1-yl]methyl}piperazin-1-yl)-N-{[4-(1,4-dioxan-2-ylmethoxy)-3-nitrophenyl]sulfonyl}-2-(1H-indazol-4-yloxy)benzamide]	2373
CN1CCC(CNc2ccc(S(=O)(=O)NC(=O)c3ccc(N4CCN(CC5=C(c6ccc(Cl)cc6)CC(C)(C)CC5)CC4)cc3Oc3cccc4[nH]cnc34)cc2[N+](=O)[O-])CC1 [EXAMPLE 454, 2-(1H-benzimidazol-4-yloxy)-4-(4-{[2-(4-chlorophenyl)-4,4-dimethylcyclohex-1-en-1-yl]methyl}piperazin-1-yl)-N-[(4-{[(1-methylpiperidin-4-yl)methyl]amino}-3-nitrophenyl)sulfonyl]benzamide]	735.2
CC1(C)CCC(CN2CCN(c3ccc(C(=O)NS(=O)(=O)c4ccc(NC[C@H]5CC[C@H](C#N)CC5)c([N+](=O)[O-])c4)c(Oc4cccc5[nH]cnc45)c3)CC2)=C(c2ccc(Cl)cc2)C1 [EXAMPLE 462, Trans-2-(1H-benzimidazol-4-yloxy)-4-(4-{[2-(4-chlorophenyl)-4,4-dimethylcyclohex-1-en-1-yl]methyl}piperazin-1-yl)-N-[(4-{[(4-cyanocyclohexyl)methyl]amino}-3-nitrophenyl)sulfonyl]benzamide]	710.8
